Consider one molecule from patent US20200115416A1 (REGENTS OF THE UNIVERSITY OF MINNESOTA, published 2020).

The chains behind the UniProt entries cited, without tags or fusion partners.
UniProt P32245, whole entry: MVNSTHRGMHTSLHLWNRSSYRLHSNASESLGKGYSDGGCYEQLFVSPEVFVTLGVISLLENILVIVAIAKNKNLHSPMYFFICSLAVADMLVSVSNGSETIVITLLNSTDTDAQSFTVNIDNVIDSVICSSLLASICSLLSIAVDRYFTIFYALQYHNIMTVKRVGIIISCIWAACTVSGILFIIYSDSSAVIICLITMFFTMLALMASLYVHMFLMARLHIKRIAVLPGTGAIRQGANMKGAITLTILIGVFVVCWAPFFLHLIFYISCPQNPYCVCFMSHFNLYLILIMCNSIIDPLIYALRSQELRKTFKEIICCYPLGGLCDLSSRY

The target in assay [1] is T1, human melanocortin-4 receptor (human, UniProt P32245 1-332).
T1 construct: whole, on cells; in the thallium flux assay co-expressed with Kir7.1 (M125R); also called hMC4R; wildtype hMC4R
Nature of the assay: displacement of 125I-AGRP, HEK293 cells expressing hMC4R. For orientation: Loss of bound radioactivity is the signal in a displacement assay; it reports binding, not function.

For assay [2], the target named is T1, human melanocortin-4 receptor. The experiment in a line: displacement of 125I-NDP-MSH, HEK293 cells expressing hMC4R.

In the case of PRFFHAFP (head-to-tail cyclic; DPro at 8) [c[Pro-Arg-Phe-Phe-His-Ala-Phe-DPro]], the IC50 (as a rule, the midpoint of a concentration-inhibition curve) in assay [1] was found to be 44 nM; in assay [2], 120 nM.
